This assay concerns the target ROCK2 (Homo sapiens (Human), UniProt O75116). Nature of the assay: ROCK2 assay (peptide phosphorylation, LABCHIP 3000 Reader). As to conditions: read-out: ROCK2 Activity IC50; 5 μM ATP, 1.5 μM peptide substrate, dose-response. Type of assay: biochemical. How it is done: After incubation, the reaction was terminated by the addition of EDTA and the phosphorylated and non-phosphorylated peptides separated using a LABCHIP®3000 Reader (Caliper Life Sciences). […] Compounds were tested in dose-response format, and the inhibition of kinase activity was calculated at each concentration of compound. […] Representative Examples were tested in the ROCK2 assay described above and found having ROCK2 inhibitory activity.

By UniProt entry, the sequences of proteins in these tests, tags left out. Where a name states a change or a piece, a line headed by the entry shows the natural chain unless it says otherwise.
UniProt O75116: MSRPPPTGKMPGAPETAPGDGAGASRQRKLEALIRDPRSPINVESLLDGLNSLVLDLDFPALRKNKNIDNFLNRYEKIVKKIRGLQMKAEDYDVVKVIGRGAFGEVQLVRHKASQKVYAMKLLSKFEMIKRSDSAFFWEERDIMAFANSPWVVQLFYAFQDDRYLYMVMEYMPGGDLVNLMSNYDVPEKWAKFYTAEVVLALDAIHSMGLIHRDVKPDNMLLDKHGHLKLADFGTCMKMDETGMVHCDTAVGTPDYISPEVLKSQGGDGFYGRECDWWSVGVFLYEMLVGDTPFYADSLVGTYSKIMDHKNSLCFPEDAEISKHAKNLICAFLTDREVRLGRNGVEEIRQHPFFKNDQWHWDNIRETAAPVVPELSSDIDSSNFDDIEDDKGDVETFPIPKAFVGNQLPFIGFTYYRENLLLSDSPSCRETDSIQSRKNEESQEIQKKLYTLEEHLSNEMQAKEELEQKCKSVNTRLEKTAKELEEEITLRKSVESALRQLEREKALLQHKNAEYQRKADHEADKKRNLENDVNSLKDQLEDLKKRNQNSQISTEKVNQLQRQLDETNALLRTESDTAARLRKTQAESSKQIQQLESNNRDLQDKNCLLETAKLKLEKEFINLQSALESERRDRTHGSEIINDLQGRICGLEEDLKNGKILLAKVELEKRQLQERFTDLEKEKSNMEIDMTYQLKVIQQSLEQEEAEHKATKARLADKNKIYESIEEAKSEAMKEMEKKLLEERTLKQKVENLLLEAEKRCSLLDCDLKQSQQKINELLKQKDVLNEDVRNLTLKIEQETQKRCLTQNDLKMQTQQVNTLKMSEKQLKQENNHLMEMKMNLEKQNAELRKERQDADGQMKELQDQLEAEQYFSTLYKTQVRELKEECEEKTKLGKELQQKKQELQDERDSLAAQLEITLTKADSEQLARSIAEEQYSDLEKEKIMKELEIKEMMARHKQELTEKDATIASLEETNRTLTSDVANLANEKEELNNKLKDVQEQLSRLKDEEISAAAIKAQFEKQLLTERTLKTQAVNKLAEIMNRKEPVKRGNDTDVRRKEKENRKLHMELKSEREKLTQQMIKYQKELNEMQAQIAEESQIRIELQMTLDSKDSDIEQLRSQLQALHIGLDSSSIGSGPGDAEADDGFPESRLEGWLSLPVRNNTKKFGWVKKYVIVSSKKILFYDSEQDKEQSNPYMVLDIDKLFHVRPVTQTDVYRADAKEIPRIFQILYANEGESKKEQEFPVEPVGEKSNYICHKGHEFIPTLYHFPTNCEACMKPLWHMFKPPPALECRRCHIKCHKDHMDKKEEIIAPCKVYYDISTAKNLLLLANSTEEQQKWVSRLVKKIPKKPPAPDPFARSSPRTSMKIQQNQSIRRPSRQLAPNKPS

As to “1-methyl-6-(((2S,4s,6S)-6-(5-methyl-1-(4-(trifluoromethyl)phenyl)-1H-pyrazole-4-carboxamido)spiro[3.3]heptan-2-yl)oxy)-1H-pyrazolo[3,4-b]pyridine-5-carboxamide”, the IC50 is 5.2 nM.

In general, IC50 refers to the concentration needed to halve the response being measured.

The record behind these values is patent US11078197B2, “5-membered and bicyclic heterocyclic amides as inhibitors of rock” (BRISTOL-MYERS SQUIBB COMPANY, priority 2017, dated 2021).
